Assay [1] concerns Brain. The assay can be described thus: Disruption of endocannabinoid metabolism in KIAA1363 deficient Swiss Webster mouse brain assessed as saturated C24:0 fatty acid level per gram of tissue at 100 mg/kg, ip after 4 hrs. The settings on record: route intraperitoneal, strain Swiss Webster.
In assay [2] the test system is Brain. Briefly: Disruption of endocannabinoid metabolism in Swiss Webster mouse brain assessed as saturated C20:0 fatty acid level per gram of tissue at 4 mg/kg, ip after 4 hrs. As to conditions: route intraperitoneal, strain Swiss Webster.

SMILES strings stand for the structures.

On to `CCOP(=S)(OCC)Oc1nc(Cl)c(Cl)cc1Cl`, for which, in the assay on Brain [1], the Activity worked out at 2.8 pmol/g.

As for `CCOP(=O)(OCC)Oc1nc(Cl)c(Cl)cc1Cl`, the Activity with Brain [2] stood at 58 pmol/g.

Source of the values: ChEMBL document CHEMBL1221209.
